Source: publication PMC4199474, “Assessment of Pharmacokinetics and Toxicology of Sadat-Habdan Mesenchymal Stimulating Peptide (SHMSP) in Rats and Goats” (International Journal of Biomedical Science : IJBS, 2014)

Assays:
Sprague Dawley rats = experiment: Toxicology after 7 consecutive daily injections in rats (clinical observation, gross organs, histopathology); type: in vivo; conditions: 20 mg/kg/day for 7 consecutive days
Protocol: (§1) Ninety (90) Sprague Dawley adult male rats and twenty adult male goats were acquired and identified by markings and were acclimated to the study environment for 16-21 days prior to dose administration. Animals were individually housed in suspended wire caging, and were kept on a 12 h / 12 h light/dark cycle except when interrupted for study procedures. Average room temperature was regulated in the range 18 to 29°C, average relative humidity of 30-70%, and an average daily airflow >10 fresh air changes/h. Animals were fed Lab Diet Certified Rodent Diet 5002 Meal food ad libitum, except during fasting prior to dose administration, and had access to water ad libitum.
(§2) The goats were injected deep intramuscularly 100 mg/kg body weight of the SHMSP dissolved in injection solution. In 10 Sprague Dawley rats of over 250 grams 20 mg/kg/day for 7 consecutive days was injected. All the animals were kept at a close watch. Clinical observation at least once daily and as necessary was undertaken. After 2 weeks animals were euthanized and major organs were harvested and histopathology samples were obtained and sent for histopathological studies.
as §2, with “Ten” for “The”, “liver, kidneys, spleen, brain, heart and intestines” for “major organs”, “harvested” for “harvested and histopathology samples were obtained”

[1] = type: in vivo; conditions: male Sprague Dawley rats, 5 mg/kg i.m.; for Average conc. of peptide in plasma: HPLC-UV 215 nm, mean of n = 3
Protocol: as §1
In 90 skeletally mature male Sprague Dawley rats 5 milligram/kg body weight SHMSP was injected intramuscularly. Blood samples from the treated rats were collected after different time interval such as 30, 60, 120, 180, 240, 360, 480 and 1440 minutes. Samples from non-injected group were collected as control samples. Blood was transferred into heparinized tubes, the protease inhibitor then immediately added. The samples were stored at −80°C until analysis.
Primary stock solution of standard was prepared by dissolving lyophilized standard compound in deionized water to get a concentration of 1000 ng/mL and stored at -20°C. Working standard solutions were prepared by serially diluting the stock solution in deionized water to obtain the linear concentrations 250, 125, 62.5, 31.25 and 15.625 ng/mL. The plasma calibration curves were prepared at concentrations of 6.25, 3.12, 1.56, 0.78 and 0.39 ng/mL by spiking 190 µL of rat plasma with 10 µL of working standard and 200 µL of deionized water at an appropriate concentration (to make up to 400 µL of total sample volume). All these procedures were conducted on ice. Samples were vortexed for five seconds, centrifuged at 14000 rpm for 30 minutes at 4°C and the supernatant was collected for the analysis. Rat plasma samples were collected from the treated rats at different time points and prepared the samples for analysis.
Acetonitrile (HPLC grade, Fischer Scientific) and Milli-Q water was used for the analysis. Analysis was performed using HPLC Waters 2535 quaternary gradient module system with Waters 2489 UV detector and Waters 2707 auto-sampler. Separations were carried out on a Waters BioSuite C18 analytical column (4.6 × 250 mm) connected to a guard (3.9 × 20 mm) column and the system was operated at an ambient temperature. The column was equilibrated with 76% eluent A (water) and 24% eluent B (acetonitrile) with both containing 0.1% trifluoroacetic acid at a flow rate of 1.0 mL/min as mobile phase. After injection of 20 µL sample, the peptide was eluted with 15ml linear gradient up to 36% of eluent A. The time between injections was 25 min. and the eluent was monitored at a wavelength of 215 nm. Plasma was isolated, processed and 20 μL was injected to HPLC system. The concentrations obtained after three animals injections have been tabulated as Run 1, Run 2 and Run 3 (Table 1). The concentration of peptide present in the rat plasma samples collected at different time intervals were quantified using standard curve method. The unknown concentrations of peptide present in the plasma samples were calculated applying the value of peak area in the equation obtained from the standard curve (Figure 1). Data shown are mean ± SD (n=3).
There were no deaths is either of the study group or in control animals. Blood samples from the treated rats were collected after different time interval at 0, 30, 60, 120, 180, 240, 360, 480 and 1440 minutes (24 hours). Samples from non-injected group were collected as control samples. Plasma was isolated, processed and 20 uL was injected to HPLC system. The peak areas obtained for the three different animals has been tabulated (Table 1). […]

goats = experiment: Toxicology after deep intramuscular injection in goats (clinical observation, gross organs, histopathology); type: in vivo, goat
Protocol: as §1, §2
as §2, with “Ten” for “The”, “liver, kidneys, spleen, brain, heart and intestines” for “major organs”, “harvested” for “harvested and histopathology samples were obtained”

[2] = cited from earlier work

Substance	Deaths (Sprague Dawley rats; Sprague Dawley rats over 250 g, observed 2 weeks)	Gross observations of the various organs (Sprague Dawley rats; Sprague Dawley rats, euthanized after 2 weeks)	Histopathological studies of organs (liver, kidneys, spleen, brain, heart, intestines) (Sprague Dawley rats; Sprague Dawley rats, euthanized after 2 weeks, H & E)	Average conc. of peptide in plasma ([1]; plasma 30 min after injection) [ng/mL]	Average conc. of peptide in plasma ([1]; plasma 60 min after injection, 5 mg/kg) [ng/mL]	Average conc. of peptide in plasma ([1]; plasma 120 min after injection) [ng/mL]	Average conc. of peptide in plasma ([1]; plasma 180 min after injection) [ng/mL]	Average conc. of peptide in plasma ([1]; plasma 240 min after injection) [ng/mL]	Time the peptide remained in the circulation ([1]; plasma, HPLC-UV) [min]	Half of the initial plasma concentration, reached at 90 min ([1]; half of the 30 min concentration, read on the plot at 90 min) [ng/mL]	Toxicity at 20 times the recommended (therapeutic) dose (goats; 100 mg/kg i.m. (20 times the recommended 5 mg/kg), major organs)	Gross observations of the various organs (goats; goats (non-rodent), 100 mg/kg body weight deep i.m., euthanized after 2 weeks)	Histopathological studies of organs (liver, kidneys, spleen, brain, heart, intestines) (goats; goats (non-rodent), 100 mg/kg body weight deep i.m., euthanized after 2 weeks, H & E)	Deaths (goats; goats, 100 mg/kg body weight deep i.m., observed 2 weeks)	Half-life in the circulation [2]
Sadat-Habdan Mesenchymal Stimulating Peptide [SHMSP]	no deaths	appeared normal	did not show any toxicity	2.3184	1.7447	0.6169	0.1114	0.0939	180	1.16	did not cause any toxic effects	appeared normal	did not show any toxicity	no deaths	
Vasculo endothelial growth factor [VEGF]															under 90 minutes

Read-outs that look alike come from different tables or passages of the source.
